Our source for the IC50 values is ChEMBL document CHEMBL5728069, “Benzenesulfonamide compounds and their use as therapeutic agents” (2020).

The structures appear in SMILES notation.

A short description of this experiment: cells. The note with it: HEK293.

Compound `C[C@@]1(Oc2cc(F)c(S(=O)(=O)Nc3cscn3)cc2Cl)CCN(Cc2ccccc2)C1` returned an IC50 of over 30 µM.

The IC50 is the midpoint of a concentration-inhibition curve. Lower therefore signals greater potency.
